Earlier results as cited in paper PMC10772121.

Protein sequences, listed by entry. Tags and fused reporters are not part of them. Residues count along the entry.
UniProt P43626, 22-245: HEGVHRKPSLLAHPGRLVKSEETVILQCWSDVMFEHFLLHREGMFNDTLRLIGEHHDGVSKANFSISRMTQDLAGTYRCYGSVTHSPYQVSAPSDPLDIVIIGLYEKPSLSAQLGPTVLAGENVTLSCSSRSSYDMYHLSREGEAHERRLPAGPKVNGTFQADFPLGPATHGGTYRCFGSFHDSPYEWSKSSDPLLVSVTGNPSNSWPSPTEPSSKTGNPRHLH
UniProt P43628, 22-245: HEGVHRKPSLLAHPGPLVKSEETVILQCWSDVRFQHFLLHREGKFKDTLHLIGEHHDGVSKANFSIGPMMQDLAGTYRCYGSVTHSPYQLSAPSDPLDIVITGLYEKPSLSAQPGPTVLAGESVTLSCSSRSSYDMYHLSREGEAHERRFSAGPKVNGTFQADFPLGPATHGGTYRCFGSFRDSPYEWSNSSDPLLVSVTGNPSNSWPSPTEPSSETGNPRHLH

Columns and labels:
KIR2DL1 (Homo sapiens) [1] = target: KIR2DL1 (Homo sapiens) (UniProt P43626); assay: SPR
KIR2DL3 (Homo sapiens) [2] = target: KIR2DL3 (Homo sapiens) (UniProt P43628); assay: SPR
KIR2DL1 (Homo sapiens) [3] = target: KIR2DL1 (Homo sapiens) (UniProt P43626); assay: ELISA
KIR2DL3 (Homo sapiens) [4] = target: KIR2DL3 (Homo sapiens) (UniProt P43628); assay: ELISA

Kd (KIR2DL1 (Homo sapiens) [1]): 10.3 nM | Kd (KIR2DL3 (Homo sapiens) [2]): 3.5 nM | Kd (KIR2DL1 (Homo sapiens) [3]): 0.05 nM | Kd (KIR2DL3 (Homo sapiens) [4]): 0.02 nM
Substance: Lirilumab
